Where two headings read alike, the source gives them in different places.

For data set [1] the following is noted: guinea pig plasma, IV, 30 min. How it is done:
Female Sprague Dawley rats were injected with a radio-iodinated arylaliphatic cholesteryl ether analogue (^125 I) solubilized in a suitable transport agent, such as 2% Tween 20-saline. After a predetermined time period, blood samples were drawn from the rats. The plasma was separated from the red blood cells and mixed with a suitable dye (Sudan Black or Sudan Blue). The plasma samples were then subjected to polyacrylamide gel electrophoresis to separate the various fractions. The radioactivity of the various fractions were measured with a gamma counter. […] The data is expressed as a percent of total radioactivity in the gel.
Guinea pigs have a greater concentration of low density lipoproteins in their blood plasma than rats.

Data set [2] in a line: Polyacrylamide gel electrophoresis of rat plasma (plasma level studies). The note with it: 24 hours. The class given is in vivo, female Sprague Dawley rats.

Consider `CC(C)CCC[C@@H](C)[C@H]1CC[C@H]2[C@@H]3CC=C4C[C@@H](OCc5cccc([125I])c5)CC[C@]4(C)[C@H]3CC[C@]12C` [m-Iodobenzyl, m-iodobenzyl cholesteryl ether], for which the “Gel fraction: LDL Band” value is reported as 32.5 ± 4.2 % OF TOTAL RADIOACTIVITY IN GEL in data set [1] and 31.2 ± 4.0 % OF TOTAL RADIOACTIVITY IN GEL in data set [2].

Values taken from patent US4933157A, “Radioiodinated arylaliphatic ether analogues of cholesterol” (The University of Michigan, priority 1988, dated 1990).
